## Binding of CDR-mutated scFvs to a peptide of the spike HR2 region

From the AlphaSeq antibody data of Li et al. 2023 (doi:10.1038/s41467-023-39022-2), copy in the FLAb collection.

The target is the same throughout: PDVDLGDISGINAS, from the HR2 region of SARS-CoV-2 spike.

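The parent was found by panning a naive human phage display library on the peptide. This is the validation round: designs drawn from the data on random variants, tested in the same kind of assay. Group labels follow the data file (Ctrl: baseline library sampled from a position-specific scoring matrix, with some repeated check sequences; GP: Gaussian process model; HC: hill climbing; Gen: genetic algorithm; Gibbs: Gibbs sampling; a sequence that several methods proposed may carry one label only). Affinity was read by AlphaSeq, a pooled yeast mating assay with surface-displayed partners. The frequency of each diploid, read from paired DNA barcodes, reflects how well the two displayed proteins bind. Each replicate has its own calibration line, from reference interactions of the BCL2 family. The assay was run in six technical replicates.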

Parent scFv Ab-14: VH joined to VL by a (GGGGS)3 linker. Changes lie in the light chain CDRs alone.
VH: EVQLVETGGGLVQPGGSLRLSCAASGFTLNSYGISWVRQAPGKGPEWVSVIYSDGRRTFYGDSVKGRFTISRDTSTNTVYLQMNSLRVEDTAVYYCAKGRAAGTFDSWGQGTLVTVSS
VL: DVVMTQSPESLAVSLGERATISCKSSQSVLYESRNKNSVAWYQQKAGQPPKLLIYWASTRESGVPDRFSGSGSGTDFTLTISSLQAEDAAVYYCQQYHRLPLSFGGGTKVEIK

The parent's light chain CDRs are KSSQSVLYESRNKNSVA, WASTRES, QQYHRLPLS; each variant's own CDRs replace them letter for letter.
Variants here have at most six changes.
Values are log10 of the apparent Kd in nM; lower means stronger binding.
Replicates are averaged; those with no signal do not enter the mean.
An entry "nd" has no value in the source: the pair was not observed among the diploids in any replicate. This suggests poor binding but is not conclusive.

For KVPQSVLYEGRNKNSVA | HASTRED | QQYHRLPLS [GP_HC], the assay gave -0.33 (6 of 6 replicates; controls 0 of 18). The variant KVSQSWLYESRNKNAVA | EASTRES | QQYHRLPLS [GP_Gen] gave -0.16 (6 of 6 replicates; controls 0 of 18). The variant KSSISQLYESMNKNSVA | LGSTRES | QQYHRLPLS [GP_HC] showed 1.00 (5 of 6 replicates; controls 2 of 18). For KMSQSVLYESRNKNSVA | NASQRES | QQYHRLPLS [GP_Gen], the assay gave 0.15 (6 of 6 replicates; controls 1 of 18). With KLSQSDLYESRNANNVA | NASTRES | QQYHRLPLS [GP_Gen] the result was -0.21 (6 of 6 replicates; controls 1 of 18). With KLSQSGLYESRNKNNVA | EASTRES | QQYHRLPLS [GP_Gen] the result was 0.07 (6 of 6 replicates; controls 0 of 18).

With KSSQSVLYESRNKNSVA | DASTRES | QQYWRLPLS [Ctrl] the result was 0.86 (6 of 6 replicates; controls 1 of 18). For KLRQSQLYESRNKNSVA | NASTRES | QQYHRLPLS [GP_Gen], the assay gave -0.43 (6 of 6 replicates; controls 0 of 18). The variant KFEQSWLYESRNKNSVA | NASQRES | QQYHRLPLS [GP_Gen] gave -0.35 (6 of 6 replicates; controls 0 of 18). The variant KLSQSWLYESRNKNSVA | NASQREK | QQYHRLPLS [GP_Gen] gave -0.09 (6 of 6 replicates; controls 1 of 18). The variant KSSQSVLYESRNKNSVA | QASTRFS | QQYHRLPLS [Ctrl] gave 0.80 (6 of 6 replicates; controls 0 of 18). The variant KVSQSVLYESRNKNNVA | DASTRES | QQYKRLPLS [Ctrl] gave -0.58 (6 of 6 replicates; controls 1 of 18).

The variant KSEISYLYESRNKNSVA | EASTRES | QQYHRLPLS [GP_HC] showed 0.75 (6 of 6 replicates; controls 0 of 18). The variant KVSQSVLYESRNKYSVA | WASTRES | QQYHGLPLS [Ctrl] gave 2.21 (2 of 6 replicates; controls 1 of 18). The variant KLSQSELYEDRVKNSVA | GASTRES | QQYHRLPLS [GP_HC] showed 0.06 (6 of 6 replicates; controls 2 of 18). The variant KLEQSVLYESRNKNSVA | NASTRFS | QQYHRLPLS [GP_Gen] gave 0.09 (6 of 6 replicates; controls 1 of 18). For KSSQSSLYMSRNKNSVA | AASTRES | QQYHRLPLL [Ctrl], the assay gave 0.33 (6 of 6 replicates; controls 1 of 18). With KWKQSGLYESRNANSVA | WASTRES | QQYHQLPLS [Ctrl] the result was 1.28 (6 of 6 replicates; controls 0 of 18).

For KSSQLYLYESRNKNSVA | GASTRES | QQYHRLPLS [GP_HC], the assay gave 0.57 (6 of 6 replicates; controls 2 of 18). The variant KHSQSCLYESRNKNSVA | WASTREQ | QQYHRLPLS [Ctrl] showed 2.35 (1 of 6 replicates; controls 0 of 18). The variant KFSQSVLYESRNKNSVA | WASTRPS | QQYHRLPLS [Ctrl] showed 1.44 (6 of 6 replicates; controls 1 of 18). For KSSQSVLYEGRNKNSVA | WASTRES | QQTHRLPLS [Ctrl], the assay gave 2.26 (4 of 6 replicates; controls 1 of 18). With KSSQSDLYESRNKNSVA | EASTREQ | QQYHRLPLS [GP_Gen] the result was 0.06 (6 of 6 replicates; controls 1 of 18). The variant KHSQSVKFESRNKNSVA | DASTRES | QQYHRLPLS [GP_HC] showed -0.15 (6 of 6 replicates; controls 3 of 18).

The variant KLSQSVPYESRNKNSVA | NASTRMS | QQYHRLPLS [GP_Gen] gave 0.03 (6 of 6 replicates; controls 0 of 18). For KSLQSVLYESRNKNSVA | HASTRED | QQYHRLPLI [GP_HC], the assay gave 1.61 (6 of 6 replicates; controls 0 of 18). The variant KVSQLGLYESRNKNSVA | NASTRES | QQYHRLPLS [GP_Gen] showed -0.16 (6 of 6 replicates; controls 5 of 18). With SLSQSVLYESRNKNSVA | HASTRES | QQYHRLELS [Ctrl] the result was nd (0 of 6 replicates; controls 0 of 18). The variant KMSQSVWYEQRNFNSVA | NGSTRES | QQYHRLPLS [GP_Gibbs] gave 0.50 (6 of 6 replicates; controls 3 of 18). For KSSQGVPYESRNKNSVA | GASTRES | QQYHRLPLS [GP_HC], the assay gave -0.15 (6 of 6 replicates; controls 0 of 18).

The variant KMSQSVLYESKNKNSVA | MASTRES | QQYCRLPLS [Ctrl] showed 0.63 (6 of 6 replicates; controls 3 of 18). For KSLQSVEYESRDKNSVA | HASTRED | QQYHRLPLS [GP_HC], the assay gave 0.70 (6 of 6 replicates; controls 5 of 18). For KSSPSVLYESLNKNSVA | NASTRMS | QQYHRLPLS [GP_HC], the assay gave 0.04 (6 of 6 replicates; controls 1 of 18). The variant KSSQSVLYESRGKNSVA | DASTRES | QQYHRLPLS [Ctrl] showed 0.26 (6 of 6 replicates; controls 0 of 18). The variant KVSQSHLYESRNMNSVA | NASTREM | QQYHRLPLS [GP_Gibbs] gave 0.05 (6 of 6 replicates; controls 3 of 18). The variant KSLQSVLYESLNKNNVA | WAYTREK | QQYVRLPLS [Ctrl] gave nd (0 of 6 replicates; controls 0 of 18).

The variant KLSQSFLYESRQKNSVA | NASTRES | QQYHRLPLS [GP_Gen] showed -0.13 (6 of 6 replicates; controls 1 of 18). The variant KSSQSVLDESRNKNSVA | WASTRED | QQYHRLGLS [Ctrl] showed 1.19 (6 of 6 replicates; controls 1 of 18). For KSSQSVLYESRNKNAVA | WASTRES | QQYHRLPLF [Ctrl], the assay gave 1.96 (6 of 6 replicates; controls 0 of 18). The variant KSSHSVLYESRNKNSVA | WASDRES | DQYHRLPLS [Ctrl] showed nd (0 of 6 replicates; controls 1 of 18). For KLQQSVLYESRNKNSVA | NASTRES | QQYHRLPLM [GP_Gen], the assay gave -0.22 (6 of 6 replicates; controls 2 of 18). With KLQQSVPYESRNKNSVA | QASTRES | QQYHRLPLS [GP_Gen] the result was 0.34 (6 of 6 replicates; controls 5 of 18).

The variant KLSQSMEYESRNKNSVA | HASTRES | QQYHRLPLS [GP_Gen] gave -0.17 (6 of 6 replicates; controls 1 of 18). For KSSQSVLYESRNKNSVA | WASTRES | QFYHRLPTS [Ctrl], the assay gave nd (0 of 6 replicates; controls 0 of 18). The variant KSSTSVLILSRNKNSVA | WASTRES | QQYHHLILS [Ctrl] showed 0.63 (1 of 6 replicates; controls 0 of 18).

The 6 strongest on average among those seen in every replicate, once more:

{"CDR-L1": "KVSQSVLYESRNKNNVA", "CDR-L2": "DASTRES", "CDR-L3": "QQYKRLPLS", "group": "Ctrl", "mean log10 Kd (nM)": "-0.58", "seen in": "6 of 6", "empty controls": "1 of 18"}
{"CDR-L1": "KLRQSQLYESRNKNSVA", "CDR-L2": "NASTRES", "CDR-L3": "QQYHRLPLS", "group": "GP_Gen", "mean log10 Kd (nM)": "-0.43", "seen in": "6 of 6", "empty controls": "0 of 18"}
{"CDR-L1": "KFEQSWLYESRNKNSVA", "CDR-L2": "NASQRES", "CDR-L3": "QQYHRLPLS", "group": "GP_Gen", "mean log10 Kd (nM)": "-0.35", "seen in": "6 of 6", "empty controls": "0 of 18"}
{"CDR-L1": "KVPQSVLYEGRNKNSVA", "CDR-L2": "HASTRED", "CDR-L3": "QQYHRLPLS", "group": "GP_HC", "mean log10 Kd (nM)": "-0.33", "seen in": "6 of 6", "empty controls": "0 of 18"}
{"CDR-L1": "KLQQSVLYESRNKNSVA", "CDR-L2": "NASTRES", "CDR-L3": "QQYHRLPLM", "group": "GP_Gen", "mean log10 Kd (nM)": "-0.22", "seen in": "6 of 6", "empty controls": "2 of 18"}
{"CDR-L1": "KLSQSDLYESRNANNVA", "CDR-L2": "NASTRES", "CDR-L3": "QQYHRLPLS", "group": "GP_Gen", "mean log10 Kd (nM)": "-0.21", "seen in": "6 of 6", "empty controls": "1 of 18"}

Values of this round are not directly comparable with the first-round values of the same sequences.
The parent sequence was in this pool as ten entries: three were never detected, three once, and four in most replicates, with averages from 0.34 to 2.37.
Three control strains display no target. For all light chain designs, 4% of the pairings with them gave a signal, with a median of 2.64 and one signal in twenty below 1.59, so weak values seen in few replicates may be background. Also given: how often the same scFv was detected with the empty control strains.
The authors' rule: three or more of the six replicates give a measured affinity, fewer mean a poor binder.